Reference: BindingDB's records for 2172538

Sequences of proteins named here, by UniProt entry; tags and fusion partners are left off.
UniProt Q99720, whole entry: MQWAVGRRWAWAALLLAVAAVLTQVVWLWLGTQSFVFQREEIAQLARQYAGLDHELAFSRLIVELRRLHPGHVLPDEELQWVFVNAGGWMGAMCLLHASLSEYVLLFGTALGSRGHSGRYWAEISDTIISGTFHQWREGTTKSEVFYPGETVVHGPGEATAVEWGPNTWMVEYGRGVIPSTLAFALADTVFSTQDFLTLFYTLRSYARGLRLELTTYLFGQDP

Biological target: Sigma non-opioid intracellular receptor 1 (Homo sapiens, UniProt Q99720)
Assay: ASSAY_NAME: ChEMBL_201137 (CHEMBL803878) DESCRIPTION: Binding affinity for sigma opioid receptor using [3H](+)-3-PPP as radioligand

| Compound | IC50 [µM] |
| --- | --- |
| COc1ccc(CC(=O)N(C)C2CCCC[C@@H]2N2CCCC2)cc1 (some centres not stated) | 0.196 |
| CN(C(=O)/C=C/c1ccc(Cl)c(Cl)c1)C1CCCC[C@@H]1N1CCCC1 (some centres not stated) | 3.65 |
| CN(C(=O)COc1ccc(Cl)c(Cl)c1)C1CCCC[C@@H]1N1CCCC1 (some centres not stated) | 0.11 |
| COc1cc(CC(=O)N(C)C2CCCC[C@@H]2N2CCCC2)cc(OC)c1OC (some centres not stated) | 0.302 |
| CN(C(=O)COc1cccc(Cl)c1Cl)C1CCCC[C@@H]1N1CCCC1 (some centres not stated) | 0.042 |
| CN(C(=O)CSc1ccccc1)C1CCCC[C@@H]1N1CCCC1 (some centres not stated) | 0.2 |
| COc1ccccc1CC(=O)N(C)C1CCCC[C@@H]1N1CCCC1 (some centres not stated) | 0.208 |
| COc1cccc(CC(=O)N(C)C2CCCC[C@@H]2N2CCCC2)c1 (some centres not stated) | 0.211 |
| CN(C(=O)COc1ccc(Cl)cc1Cl)C1CCCC[C@@H]1N1CCCC1 (some centres not stated) | 0.076 |
| CN(C(=O)CCCOc1ccc(Cl)cc1Cl)C1CCCC[C@H]1N1CCCC1 (some centres not stated) | 0.418 |
| CN(C(=O)COc1ccccc1)C1CCCC[C@@H]1N1CCCC1 (some centres not stated) | 1.25 |
| COc1cc(CCC(=O)N(C)C2CCCC[C@@H]2N2CCCC2)cc(OC)c1OC (some centres not stated) | 2.67 |

Only a part of the results on these compounds is given; other tests are left out.
